According to paper PMC5799093, “Proceedings of Réanimation 2018, the French Intensive Care Society International Congress” (Annals of Intensive Care, 2018):

System: poisoned patients with cardiovascular failure
Conditions: 246 poisoned patients

SMILES | maximal infusion rate associated with survival [mg·h]
NC[C@H](O)c1ccc(O)c(O)c1 [norepinephrine] | 140
CC(C)NCC(O)c1ccc(O)c(O)c1 (centres unmarked) [isoprenaline] | 25
